The conditions of the data set: mouse, in vivo, po, 40 mg/kg. The protocol:
The animals were housed at a temperature of 22-24° C., humidity of 50% (+/−10%), in a room providing 15 air changes per hour, with 12:12 hours light-dark cycle. In addition, they had constant access to food and water. […] Blood was allowed to clot at room temperature for 20 min, then centrifuged for 5 min, 10,000×g (Eppendorf miniSpin centrifuge, Germany) to obtain serum. The obtained biological material was stored at −70° C. until analysis.
Concentrations of the tested compounds in murine serum and brain homogenates were determined by high-performance liquid chromatography-tandem mass spectrometry (HPLC-MS/MS). Analyzes were performed on a Sciex QTRAP 4500 triple quad mass spectrometer coupled to an Exion LC AC HPLC (Danaher Corporation, USA). The chromatographic separation was carried out on a Hypersil Gold™ C18 column (3×50 mm, 5 μm, Thermo Scientific, USA), using a mixture of acetonitrile and water with 0.1% formic acid as the mobile phase. Analyzes were performed at 40° C. and the gradient shown in Table 7 was used to obtain optimal retention time. Valsartan was used as an internal standard. Positive ionization mode (ESI+) was used for maximum sensitivity. Ion path parameters were optimized by continuous infusion (7 μL/min) of a solution of the tested compound directly to the mass spectrometer using a syringe pump. […]

This passage reports Vz/F results from patent publication US20250042848A1, “DEUTERATED FUNCTIONALIZED DERIVATIVES OF alpha-ALANINE, IN [sequence] FOR THE TREATMENT OF NEUROLOGICAL DISEASES” (UNIWERSYTET JAGIELLONSKI, priority 2021, published 2025).

Molecules are shown by their SMILES.

Compound `CC(C(=O)NCc1ccccc1F)N1C(=O)CCC1=O` (stereo not shown) [Compound 2, reference compound] displayed a Vz/F of 2.91 L/kg.
